The assay deals with Delta-type opioid receptor (Mus musculus, UniProt P32300). Briefly: Inhibitory activity against Opioid receptor delta 1 of mouse vas deferens (MVD). The class given is tissue-based.

The chains behind the UniProt entries cited, without tags or fusion partners.
UniProt P32300, whole entry: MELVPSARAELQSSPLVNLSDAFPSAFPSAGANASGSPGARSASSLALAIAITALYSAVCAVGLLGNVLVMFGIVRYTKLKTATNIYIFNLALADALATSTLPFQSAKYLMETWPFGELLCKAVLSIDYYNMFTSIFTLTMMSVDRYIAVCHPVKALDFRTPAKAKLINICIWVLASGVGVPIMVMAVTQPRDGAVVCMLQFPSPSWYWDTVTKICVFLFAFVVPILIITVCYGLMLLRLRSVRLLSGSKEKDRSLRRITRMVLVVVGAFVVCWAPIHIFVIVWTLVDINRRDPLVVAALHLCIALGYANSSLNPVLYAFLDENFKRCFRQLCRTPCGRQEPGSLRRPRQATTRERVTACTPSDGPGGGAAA

As a reminder, the pIC50 is −log10 of the IC50, conventionally taken in molar units. Read a high pIC50 as a low IC50.

pIC50: −log10 of the molar value.

For the compound `CC(C)[C@H](NC(=O)[C@H](CC(=O)O)NC(=O)[C@H](Cc1ccccc1)NC(=O)[C@@H](C)NC(=O)[C@@H](N)Cc1ccc(O)cc1)C(=O)N[C@H](C(=O)NCC(N)=O)C(C)C` [DELTORPHIN C], the negative-log IC50 (pIC50) is 9.34.

The values are drawn from ChEMBL document CHEMBL1129480, “Design and synthesis of 1-aminocycloalkane-1-carboxylic acid-substituted deltorphin analogues: unique delta and mu opioid activity in modified peptides” (J Med Chem, 1996).
